Reference: article PMC3138873 (Biochemical pharmacology, 2011)
Like-named read-outs stand apart in the source and are kept apart here.

By UniProt entry, the sequences of proteins in these tests, tags left out. Residues count along the entry.
UniProt P30803, 398-765 limits assumed: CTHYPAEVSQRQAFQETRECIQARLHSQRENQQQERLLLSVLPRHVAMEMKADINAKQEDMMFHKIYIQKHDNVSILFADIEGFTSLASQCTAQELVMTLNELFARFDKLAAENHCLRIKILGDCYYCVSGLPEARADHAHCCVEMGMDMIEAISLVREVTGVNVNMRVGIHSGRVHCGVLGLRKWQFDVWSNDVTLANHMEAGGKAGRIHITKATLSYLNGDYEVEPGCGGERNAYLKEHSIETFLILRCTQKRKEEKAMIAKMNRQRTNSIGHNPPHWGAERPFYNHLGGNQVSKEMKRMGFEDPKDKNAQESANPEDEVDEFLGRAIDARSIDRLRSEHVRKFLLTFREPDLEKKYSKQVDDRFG

Key:
AC5 [1] = molecular target: T1, AC5 (Canis lupus familiaris, UniProt P30803); experiment: AC activity assay in Sf9 membranes expressing recombinant AC5; type: biochemical, mammalian; conditions: for Ki: read-out: AC5 Ki, Sf9 membranes, 5 mM MnCl2, 100 μM FS, mean ± SD
AC2 = molecular target: T2, AC2 (Rattus norvegicus, UniProt P26769); conditions: read-out: AC2 Ki; Sf9 membranes, 5 mM MnCl2, 100 μM FS; mean ± SD; cited from earlier work
T2 sequence (P26769 1-1090): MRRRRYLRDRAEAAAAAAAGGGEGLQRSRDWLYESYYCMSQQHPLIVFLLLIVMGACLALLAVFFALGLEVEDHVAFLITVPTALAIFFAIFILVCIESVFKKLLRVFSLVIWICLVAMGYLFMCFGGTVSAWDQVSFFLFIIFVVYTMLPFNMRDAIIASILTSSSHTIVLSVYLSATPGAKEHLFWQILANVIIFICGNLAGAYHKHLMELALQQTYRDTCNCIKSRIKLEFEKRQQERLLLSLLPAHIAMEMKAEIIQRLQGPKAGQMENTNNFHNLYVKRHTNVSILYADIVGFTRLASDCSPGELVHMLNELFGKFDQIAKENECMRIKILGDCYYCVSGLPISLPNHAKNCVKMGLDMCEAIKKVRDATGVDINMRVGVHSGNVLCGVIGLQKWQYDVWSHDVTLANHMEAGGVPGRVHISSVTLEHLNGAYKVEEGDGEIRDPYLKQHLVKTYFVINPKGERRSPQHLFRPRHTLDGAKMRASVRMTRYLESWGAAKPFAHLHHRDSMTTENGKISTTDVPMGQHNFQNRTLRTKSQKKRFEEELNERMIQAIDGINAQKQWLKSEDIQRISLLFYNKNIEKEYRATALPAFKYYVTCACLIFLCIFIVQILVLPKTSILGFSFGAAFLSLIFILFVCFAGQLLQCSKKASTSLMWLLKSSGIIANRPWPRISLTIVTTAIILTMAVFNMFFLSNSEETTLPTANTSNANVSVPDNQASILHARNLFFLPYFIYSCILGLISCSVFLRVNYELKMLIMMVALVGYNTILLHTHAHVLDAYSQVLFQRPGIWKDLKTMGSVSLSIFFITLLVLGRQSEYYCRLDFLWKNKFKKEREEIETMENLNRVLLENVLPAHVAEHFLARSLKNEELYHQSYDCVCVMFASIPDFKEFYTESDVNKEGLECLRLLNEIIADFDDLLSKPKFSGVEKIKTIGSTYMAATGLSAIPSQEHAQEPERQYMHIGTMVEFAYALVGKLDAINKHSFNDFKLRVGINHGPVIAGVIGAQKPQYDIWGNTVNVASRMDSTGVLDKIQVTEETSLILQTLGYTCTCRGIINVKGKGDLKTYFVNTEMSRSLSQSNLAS

AC5 [2] = molecular target: T1, AC5; conditions: read-out: AC5 Ki; Sf9 membranes, 5 mM MnCl2, 100 μM FS; mean ± SD; cited from earlier work
VC1:IIC2 = VC1:IIC2 (UniProt P26769+P30803); experiment: Inhibition of the catalytic activity of purified VC1:IIC2; type: biochemical, mammalian
[3] = read-out: VC1:IIC2 Mn2+ + FS + Gsα-GTPγS Ki
[4] = read-out: VC1:IIC2 Mn2+ + FS Ki

Ki (VC1:IIC2; VC1:IIC2 Mn2+ + FS + Gsα-GTPγS Ki, maximally stimulated: 10 mM MnCl2, 100 μM FS, Gsα-GTPγS, 100 μM ATP, mean ± SD) | Compound | Fold decrease in affinity for AC5 relative to guanine (1) (AC5 [1]; AC5) | Ki (AC2) | Ki (AC5 [2]) | Ki (VC1:IIC2; [3]) | Ki (VC1:IIC2; [4]) | Ki (AC5 [1])
– | 2’,3’-O-(N-methylanthraniloyl)-adenosine 5’-triphosphate [compound 5] | 2-3 fold | 330 ± 80 nM | 100 ± 30 nM | 16 ± 6.4 nM | 100 ± 27 nM | –
– | 2’,3’-O-anthraniloyl-adenosine 5’-diphosphate [compound 15] | – | – | – | 250 ± 12 nM | 21000 nM | 640 ± 70 nM
– | 2’,3’-O-anthraniloyl-adenosine 5’-triphosphate [compound 14] | – | – | – | 17 ± 2.4 nM | 180 ± 57 nM | 120 ± 20 nM
180 ± 6.1 nM | CNc1ccccc1C(=O)O[C@H]1C[C@H](n2cnc3c(=O)[nH]c(N)nc32)O[C@@H]1COP(=O)(O)OP(=O)(O)OP(=O)(O)O [compound 2, 2’-deoxy-3’-O-(N-methylanthraniloyl)-guanosine 5’-triphosphate] | – | – | – | – | – | –
